## Binding of CDR-mutated scFvs to a peptide of the spike HR2 region

Source: Engelhart et al. 2022 (doi:10.1038/s41597-022-01779-4), MIT Lincoln Laboratory and A-Alpha Bio; data file from the FLAb repository.

Target peptide (SARS-CoV-2 spike, HR2 region): PDVDLGDISGINAS

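The parent was found by panning a naive human phage display library on the peptide. AAYL50 was designed without a model: most single CDR substitutions and a random sample of double and triple ones. The assay is AlphaSeq: two haploid yeast populations carry antibody and antigen on their surface. Binding brings cells together so that they mate, and sequencing counts the barcode pairs among the diploids. Read counts were normalised to the haploid input and turned into Kd by a linear fit to BCL2-family pairs of known affinity, for each replicate. Mating was done three times.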

Each scFv is VH, a 15-residue (Gly4Ser)3 linker, VL, as in the parent Ab-14, and differs from it in the CDRs of the light chain only.
VH: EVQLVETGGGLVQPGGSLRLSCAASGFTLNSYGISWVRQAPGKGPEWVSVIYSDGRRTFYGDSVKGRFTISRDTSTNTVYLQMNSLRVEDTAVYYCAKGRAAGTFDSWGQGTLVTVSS
VL: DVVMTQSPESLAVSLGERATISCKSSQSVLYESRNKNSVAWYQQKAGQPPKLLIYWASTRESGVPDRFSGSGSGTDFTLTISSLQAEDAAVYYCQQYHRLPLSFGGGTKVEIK

Substitutions are numbered in sequence along the VL above, starting at 1 (not Kabat).
Values are log10 of the apparent Kd in nM; lower means stronger binding.
"nd" means that the variant was in the library but no mating with the target was seen in that replicate; the authors take this as a sign of poor binding, and no number exists.
Nonspecific signal, from three strains lacking the peptide, appeared in 18% of pairings of library AAYL50, centred on 4.19 (5% of these signals below 2.99); values are not corrected for it. The control count says in how many pairings with the empty strains this scFv gave a signal.

N37S S62K L100R: nd, nd, 4.64 (controls 0 of 9).
S38G S58V T59C: 2.56, 2.64, 5.52 (controls 2 of 9).
S26Q L30H S62N: 0.75, 1.05, 0.96 (controls 4 of 9).
S33L Y97S L100W: 1.53, 1.43, 1.51 (controls 5 of 9).
S25W A57E S62L: 1.46, nd, nd (controls 0 of 9).
Q27L S38T L100V: 2.76, 2.16, nd (controls 1 of 9).
V39R S62C: nd, nd, nd (controls 0 of 9).
V29K W56H S62E: -0.37, 0.02, -0.29 (controls 5 of 9).
E32N Q95R Q96G: nd, nd, nd (controls 1 of 9).
V39Q A40P S58K: nd, nd, nd (controls 0 of 9).
K24Q S58V Q95T: 3.10, 4.00, 5.66 (controls 4 of 9).
V29E E61H Y97N: nd, nd, nd (controls 0 of 9).
T59D Q96M L100N: nd, nd, nd (controls 0 of 9).
Q27L N37C S38E: 3.01, nd, nd (controls 0 of 9).
K24T N35C A57K: nd, nd, nd (controls 0 of 9).
S38V S58W: nd, nd, nd (controls 2 of 9).
S38M A40V W56P: nd, nd, nd (controls 0 of 9).
R60P Q95P L102V: 1.71, 1.77, 1.86 (controls 1 of 9).
S26V W56Q L100S: 0.94, 1.06, 1.04 (controls 6 of 9).
S62W R99N L102V: nd, nd, nd (controls 1 of 9).
L30Q A57I L100Y: 2.25, 1.90, 2.23 (controls 3 of 9).
K36F R99A S103F: 3.81, 4.82, nd (controls 0 of 9).
Y31S K36F L100W: 3.19, 2.98, 2.87 (controls 2 of 9).
Q27T S38Y S62R: 1.57, 1.55, 1.55 (controls 2 of 9).
S25M R60D: 2.97, 3.79, nd (controls 0 of 9).
K24Y V29A N35D: 1.83, 1.74, 1.93 (controls 3 of 9).
K36P H98N: 0.91, 0.95, 1.01 (controls 3 of 9).
R34Y Y97G H98R: 4.72, nd, nd (controls 0 of 9).
V29G V39L Q95W: nd, 4.39, nd (controls 1 of 9).
L30W S33F A40P: nd, nd, nd (controls 0 of 9).
V29F T59R P101D: nd, nd, nd (controls 0 of 9).
Y31S S38Q T59R: 3.56, 3.49, nd (controls 2 of 9).
N35C K36A A57I: nd, nd, nd (controls 0 of 9).

The 5 strongest on average among those seen in every replicate, once more:

For V29K W56H S62E, the assay gave -0.37, 0.02, -0.29 (controls 5 of 9).
For S26Q L30H S62N, the assay gave 0.75, 1.05, 0.96 (controls 4 of 9).
For K36P H98N, the assay gave 0.91, 0.95, 1.01 (controls 3 of 9).
For S26V W56Q L100S, the assay gave 0.94, 1.06, 1.04 (controls 6 of 9).
For S33L Y97S L100W, the assay gave 1.53, 1.43, 1.51 (controls 5 of 9).